Legend:
[1] = biological target: RORγ ligand binding domain (LBD) (Homo sapiens, UniProt P51449); assay: TR-FRET Activity Assay (ligand sensing assay, RORγ-LBD / coactivator peptide interaction)
RORγ = RORγ (UniProt P51449); settings: 293T cells, 16 h; for pIC50 (FF): firefly (FF) luciferase; for pIC50 (REN): renilla normalised (RENnorm) luciferase

Row | SMILES | IC50 [1] | pIC50 (FF) (RORγ) | pIC50 (REN) (RORγ)
1 | Cc1c(C(=O)NC2CCOCC2)cn(-c2cc(C(C)(C)C)cc(C3(C)CC3)c2)c1CC1CCCCC1 [1/2] | 316 nM | 7.5 | 7.4
2 | Cc1c(C(=O)NC2CCOCC2)cn(-c2cc(C(C)(C)C)c3c(c2)C2(CCO3)CC2)c1CC1CCCCC1 [1/3] | 794 nM | 6.9 | 6.9
3 | Cc1c(C(=O)NC2CCOCC2)cn(-c2cc(C(C)(C)C)cc(C(F)(F)F)c2)c1CC1CCCCC1 [1/6] | 251 nM | 7.2 | 7.2
4 | COCCNC(=O)c1nn(-c2cc(C(C)(C)C)cc(C(C)(C)C)c2)c(CC2CCCCC2)c1Cl [103/3] | 398 nM | < 4.7 | < 4.7
5 | CC(C)(C)c1cc(-n2nc(C(=O)NCCO)c(Cl)c2CC2CCCCC2)cc(C(C)(C)C)c1 [103/4] | 1000 nM | < 4.7 | < 4.7
6 | CC(C)(O)CNC(=O)c1nn(-c2cc(C(C)(C)C)nc(C(C)(C)C)c2)c(CC2CCCCC2)c1Cl [104/2] | 158 nM | 6.5 | 6.5
7 | CC(C)(C)c1cc(-n2nc(C(=O)NCCN3CCOCC3)c(Cl)c2CC2CCCCC2)cc(C(C)(C)C)n1 [104/3] | 158 nM | 6.7 | 6.5
8 | CC(C)(C)c1cc(-c2nc(C(=O)N3CCOCC3)nn2CC2CCCCC2)cc(C(C)(C)C)c1O [308/5] | 3980 nM | 5.5 | < 4.7
9 | Cc1c(C(=O)NCC(C)(C)O)cn(-c2cc(C(C)(C)C)cc(C(C)(C)C)c2)c1CC1CCCCC1 [Example 1, 5-(Cyclohexylmethyl)-1-(3,5-di-tert-butylphenyl)-N-(2-hydroxy-2-methylpropyl)-4-methyl-1H-pyrrole-3-carboxamide] | 126 nM | 7.3 | 7.3
10 | CC(C)(C)c1cc(-n2nc(C(=O)NC3COC3)c(Cl)c2CC2CCCCC2)cc(C(C)(C)C)c1 [Example 103/1] | 200 nM | 6.6 | 6.7
11 | CC(C)(C)c1cc(-n2nc(C(=O)NC3COC3)c(Cl)c2CC2CCCCC2)cc(C(C)(C)C)n1 [Example 104/1] | 158 nM | 6.4 | 6.3
12 | CC1(CNC(=O)c2nn(-c3cc(C(C)(C)C)nc(C(C)(C)C)c3)c(CC3CCCCC3)c2F)COC1 [Example 106, 5-(Cyclohexylmethyl)-1-(2,6-di-tert-butylpyridin-4-yl)-4-fluoro-N-((3-methyloxetan-3-yl)methyl)-1H-pyrazole-3-carboxamide] | 126 nM | 6.7 | 6.6
13 | CC1(CNC(=O)c2nn(-c3cc(C(C)(C)C)nc(C(C)(C)C)c3)c(CC3CCCCC3)c2C(F)(F)F)COC1 [Example 107, 5-(Cyclohexylmethyl)-1-(2,6-di-tert-butylpyridin-4-yl)-N-((3-methyloxetan-3-yl)methyl)-4-(trifluoromethyl)-1H-pyrazole-3-carboxamide] | 1260 nM | < 4.7 | < 4.7
14 | Cc1c(C(N)=O)nn(-c2cc(C(C)(C)C)cc(C(C)(C)C)c2)c1CC1CCCCC1 [Example 311, 5-(Cyclohexylmethyl)-1-(3,5-di-tert-butylphenyl)-4-methyl-1H-pyrazole-3-carboxamide] | 316 nM | 6.0 | 5.9
15 | Cc1cc(-n2nc(C(N)=O)c(Cl)c2CC2CCCCC2)cc(C(C)(C)C)c1 [Example 314, 1-(3-(tert-butyl)-5-methylphenyl)-4-chloro-5-(cyclohexylmethyl)-1H-pyrazole-3-carboxamide] | 3980 nM | 5.6 | 5.5

Source: patent US9458104B2 (dated 2016)
